Here are results for one molecule from US20230144203A1, “DRUG CONJUGATE OF ERIBULIN DERIVATIVE, PREPARATION METHOD THEREFOR AND APPLICATION THEREOF IN MEDICINE” (SHANGHAI SENHUI MEDICINE CO., LTD., priority 2020, published 2023).

This data set in a line: Test Example 6 pharmacokinetic study in beagles. The settings on record: male, beagle, dog, in vivo, iv, 0.5 mg/kg. As for the experimental part: The pharmacokinetic performance in beagles of the compounds of the present disclosure was studied and the pharmacokinetic profile thereof was evaluated.
Male 6 beagles were divided into 2 groups of 3, purchased from Shanghai Medicilon Inc., and subjected to administration test.
Plasma samples were stored in a refrigerator at −80° C. prior to testing. […] The plasma concentration of the test compounds in beagles after drug injection was determined: after administration, 25 μL of beagle plasma at various times after administration was taken, and added with 50 μL (100 ng/mL) of internal standard solution camptothecin (National Institutes for Drug Control) and 200 μL of acetonitrile. The mixture was vortexed for 5 min and centrifuged for 10 min (3700 rpm/min). 3 to 4 μL of the supernatant of the plasma sample was subjected to LC/MS assay (API4000 triple quadrupole tandem mass spectrometer (No. 2), Applied Biosystems, USA; Shimadzu, LC-30AD ultra high performance liquid chromatography system, Shimadzu, Japan.) The analysis was performed.

Each structure is given as a SMILES string.

For the molecule `C=C1C[C@@H]2CC[C@@]34C[C@H]5O[C@H]6[C@@H](O3)[C@H]3O[C@H](CC[C@@H]3O[C@H]6[C@H]5O4)CC(=O)C[C@@H]3[C@@H](OC)[C@@H](C[C@H](O)CN)O[C@H]3C[C@H]3O[C@@H](CC[C@@H]1O2)C[C@@H](C)C3=C` [Eribulin, eribulin], the AUC(0-t) (as a rule, the area under the concentration-time curve up to a stated or last time point) was 106 ng·h/mL; the MRT (as a rule, a mean duration of stay, worked out from the concentration-time curve) worked out at 3.7 h; the distribution volume (Vd) (as a rule, a proportionality between amount in the body and measured concentration, not a real space) was 15.6 L/kg; the clearance (in general, the rate of elimination divided by the concentration) was 78 mL/min/kg. The half-life (in general, the time needed for the level to fall by half in the phase considered) was 3.5 h.
